Laboratory results taken from patent US8481597B2, “Use of (-) (3-trihalomethylphenoxy) (4-halophenyl) acetic acid derivatives for treatment of insulin resistance, type 2 diabetes, hyperlipidemia and hyperuricemia” (Metabolex, Inc., priority 1999, dated 2013).

Chains of the proteins cited; added tags and fusions are not shown.
UniProt P05177, whole entry: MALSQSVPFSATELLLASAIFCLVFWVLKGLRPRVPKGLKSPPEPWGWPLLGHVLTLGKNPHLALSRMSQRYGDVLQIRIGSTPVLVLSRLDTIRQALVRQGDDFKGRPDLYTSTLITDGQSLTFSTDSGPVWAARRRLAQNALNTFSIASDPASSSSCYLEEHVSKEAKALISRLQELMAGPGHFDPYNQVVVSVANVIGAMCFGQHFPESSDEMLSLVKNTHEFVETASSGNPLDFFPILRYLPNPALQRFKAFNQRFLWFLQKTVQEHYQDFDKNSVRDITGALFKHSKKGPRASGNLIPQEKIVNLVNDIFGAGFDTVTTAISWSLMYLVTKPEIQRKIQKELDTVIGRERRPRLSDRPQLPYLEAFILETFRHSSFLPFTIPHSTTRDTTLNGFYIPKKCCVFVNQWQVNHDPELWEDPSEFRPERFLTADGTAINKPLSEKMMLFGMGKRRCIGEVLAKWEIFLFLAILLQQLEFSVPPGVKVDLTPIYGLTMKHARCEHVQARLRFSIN

Target: CYP1A2 (Homo sapiens, UniProt P05177)
Details: both, 30 min, 5 μM

AC Production: 54.5 ± 1.3 pmol/mg protein/min
Compound: Cc1nc2c([nH]1)c(=O)n(C)c(=O)n2Cc1ccco1 [FUR, furafylline, reference compound]
